The compounds below were run on SMMC-7721 cells (assay: cells). Settings: Homo sapiens, SMMC-7721, 48 h, read-out: IC50, SMMC-7721.
In the case of O=C1CCC[C@@H]2[C@H]3CCCN4CCC[C@H](CN12)[C@@H]34 [Compound 1, Sophoridine, reference compound], the IC50 is reported as over 100 µM.
COC(=O)CCC[C@@H]1[C@H]2CCCN3CCC[C@H](CN1P(=O)(Oc1ccc(C)cc1)N(CCCl)CCCl)[C@@H]23 (stereo partly drawn) [Compound 7a] was tested, and the IC50 was 60.8 ± 2.34 µM.
Compound COC(=O)CCC[C@@H]1[C@H]2CCCN3CCC[C@H](CN1P(=O)(Oc1ccc(OC)cc1)N(CCCl)CCCl)[C@@H]23 (stereo partly drawn) [Compound 7b] has an IC50 of 65.2 ± 2.67 µM.
For COC(=O)CCC[C@@H]1[C@H]2CCCN3CCC[C@H](CN1P(=O)(Oc1ccc(Cl)cc1)N(CCCl)CCCl)[C@@H]23 (stereo partly drawn) [Compound 7c], the IC50 was 31.7 ± 1.21 µM.
For COC(=O)CCC[C@@H]1[C@H]2CCCN3CCC[C@H](CN1P(=O)(Oc1ccc([N+](=O)[O-])cc1)N(CCCl)CCCl)[C@@H]23 (stereo partly drawn) [Compound 7d], the IC50 was 36.5 ± 2.45 µM.
Compound COC(=O)CCC[C@@H]1[C@H]2CCCN3CCC[C@H](CN1P(=O)(Oc1ccccc1)N(CCCl)CCCl)[C@@H]23 (stereo partly drawn) [Compound 7e] has an IC50 of 77.9 ± 2.78 µM.
